Measurements as given in ChEMBL document CHEMBL1135288, “Anthranilate sulfonamide hydroxamate TACE inhibitors. Part 1: Structure-based design of novel acetylenic P1' groups” (Bioorg Med Chem Lett, 2002).

Protein sequences, listed by entry. Tags and fused reporters are not part of them. Lines headed by an entry give the natural chain unless they say otherwise; changes in a name come on top.
UniProt O77636: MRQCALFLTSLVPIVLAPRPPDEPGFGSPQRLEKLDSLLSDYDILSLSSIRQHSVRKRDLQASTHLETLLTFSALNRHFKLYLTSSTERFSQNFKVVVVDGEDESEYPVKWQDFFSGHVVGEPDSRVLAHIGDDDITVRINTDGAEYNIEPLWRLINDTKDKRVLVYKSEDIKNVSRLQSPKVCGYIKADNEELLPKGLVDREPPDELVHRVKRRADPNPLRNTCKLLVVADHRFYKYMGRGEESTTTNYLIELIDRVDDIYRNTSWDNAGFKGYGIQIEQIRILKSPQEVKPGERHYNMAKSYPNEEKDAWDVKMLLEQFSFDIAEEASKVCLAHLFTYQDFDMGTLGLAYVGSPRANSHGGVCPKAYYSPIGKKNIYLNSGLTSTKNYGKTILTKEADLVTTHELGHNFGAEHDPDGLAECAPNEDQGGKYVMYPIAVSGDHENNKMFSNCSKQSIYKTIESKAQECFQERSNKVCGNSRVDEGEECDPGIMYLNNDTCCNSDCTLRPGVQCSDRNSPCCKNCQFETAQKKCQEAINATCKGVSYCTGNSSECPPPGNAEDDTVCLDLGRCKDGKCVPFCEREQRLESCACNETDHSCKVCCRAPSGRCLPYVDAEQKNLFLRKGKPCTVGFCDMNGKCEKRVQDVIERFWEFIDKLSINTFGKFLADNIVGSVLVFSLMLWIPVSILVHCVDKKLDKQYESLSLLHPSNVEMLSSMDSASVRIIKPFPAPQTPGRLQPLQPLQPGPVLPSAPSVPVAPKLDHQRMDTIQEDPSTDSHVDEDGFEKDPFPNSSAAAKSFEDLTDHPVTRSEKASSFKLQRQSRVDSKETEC

Target: Disintegrin and metalloproteinase domain-containing protein 17 (Sus scrofa, UniProt O77636)
Assay: Inhibition of porcine Tumor necrosis factor alpha converting enzyme

Q: With CC#CCOc1ccc(S(=O)(=O)N(C)c2c(C)cc(Br)cc2C(=O)NO)cc1 as the compound, how does the IC50 read?
A: 16 nM

Q: Which IC50 does the source give for COc1ccc(S(=O)(=O)N(C)c2c(C)cc(Br)cc2C(=O)NO)cc1 here?
A: 32 nM
